Source: publication PMC10986131

How the values were obtained:
GFP-Mdm2 = assay: co-immunoprecipitation with immunoblot densitometry; conditions: chain shown with the change, HEK293 cells expressing D3R, n = 3, read off a plot
[1] = target: T1, TRAF6 (as co-transfected with FLAG-AKT in Fig. 2B), Q9Y4K3; assay: co-immunoprecipitation (anti-FLAG beads) with immunoblot densitometry; conditions: chain shown with the change, HEK293 cells expressing D3R (1.9 ~ 2.1 pmol/mg protein), n = 3, read off a plot
T1 chain: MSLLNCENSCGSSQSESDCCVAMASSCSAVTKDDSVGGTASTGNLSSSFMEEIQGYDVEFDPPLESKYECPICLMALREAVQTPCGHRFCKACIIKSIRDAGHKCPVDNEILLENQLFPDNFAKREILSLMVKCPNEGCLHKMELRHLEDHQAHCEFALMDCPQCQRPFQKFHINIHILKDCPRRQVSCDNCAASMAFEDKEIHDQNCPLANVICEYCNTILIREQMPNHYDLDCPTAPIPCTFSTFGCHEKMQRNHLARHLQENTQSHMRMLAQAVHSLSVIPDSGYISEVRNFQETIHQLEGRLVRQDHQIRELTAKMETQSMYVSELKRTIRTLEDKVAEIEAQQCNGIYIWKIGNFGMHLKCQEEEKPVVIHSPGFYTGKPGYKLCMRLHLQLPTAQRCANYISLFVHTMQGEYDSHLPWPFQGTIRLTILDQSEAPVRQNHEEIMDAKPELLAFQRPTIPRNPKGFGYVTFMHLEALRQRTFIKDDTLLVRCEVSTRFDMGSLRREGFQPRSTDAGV

B1: FLAG-WT-AKT, P31749 K8R; K14R (protein)
chain: MSDVAIVREGWLHRRGEYIKTWRPRYFLLKNDGTFIGYKERPQDVDQREAPLNNFSVAQCQLMKTERPRPNTFIIRCLQWTTVIERTFHVETPEEREEWTTAIQTVADGLKKQEEEEMDFRSGSPSDNSGAEEMEVSLAKPKHRVTMNEFEYLKLLGKGTFGKVILVKEKATGRYYAMKILKKEVIVAKDEVAHTLTENRVLQNSRHPFLTALKYSFQTHDRLCFVMEYANGGELFFHLSRERVFSEDRARFYGAEIVSALDYLHSEKNVVYRDLKLENLMLDKDGHIKITDFGLCKEGIKDGATMKTFCGTPEYLAPEVLEDNDYGRAVDWWGLGVVMYEMMCGRLPFYNQDHEKLFELILMEEIRFPRTLGPEAKSLLSGLLKKDPKQRLGGGSEDAKEIMQHRFFAGIVWQHVYEKKLSPPFKPQVTSETDTRYFDEEFTAQMITITPPDQDDSMECVDSERRPHFPQFSYSASGTA
Binder B1 has an other: Fold increase in AKT bound to Mdm2 (GFP-Mdm2; Quin '+' (100 nM Quin for 5 min, single treatment), parent: est. 1.4) of 1.2 fold, an other: Fold increase in AKT bound to Mdm2 (GFP-Mdm2; Quin 'w/+' (100 nM Quin for 5 min, washed, and re-challenged), parent: est. 3.0) of 1.2 fold and an other: Fold increase in AKT bound to TRAF6 ([1]; Quin '+' (100 nM Quin for 5 min, single treatment), parent: est. 2.1) of 2.1 fold. The other: Fold increase in AKT bound to TRAF6 ([1]; Quin '-' (no quinpirole), parent: est. 1.0) was 2.5 fold and the other: Fold increase in AKT bound to TRAF6 ([1]; Quin 'w/+' (100 nM Quin for 5 min, desensitization protocol: washed and re-challenged), parent: est. 7.5) was 2.5 fold.
